# Bioassay records: PubChem, National Center for Advancing Translational Sciences (NCATS)
# TDP1 cell noCPT: qHTS for Inhibitors of human tyrosyl-DNA phosphodiesterase 1 (TDP1): qHTS in cells in absence of CPT; DT40 Tdp1-/- hTDP1 cells, no CPT, ATP luminescence, 48 h; hit rate 15% among 420,000; Potency, µM (series often up to 46.2 µM), actives largely listed as inhibitors; also: nearly all actives have a fitted effect of over 55% in size
#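 Chicken DT40 Tdp1-/- cells stably complemented with human TDP1 were seeded at 400 cells/well with DMSO in place of 20 nM camptothecin. After compound pinning, cells grew at least 48 hr at 37 °C; viability read by CellTiter-Glo luminescence.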
# uPA surface inh: cell surface uPA generation inhibition. Potency, µM (highest dose often 38.3 µM), usual class: inhibitors. hit rate 0.31% among 330,000. cell surface uPA generation assay, qHTS; active = well fitted inhibition curve with a large enough effect; inconclusive = small, poorly fitted or top-dose-only effect; inactive = no such curve, though single readings can be large or run the other way; tested in mouse RAW 264.7 cells; also: nearly all actives have a fitted effect of over 55% in size
# DT40 TDP1 CPT: growth inhibition of DT40 Tdp1-/-;hTDP1 cells with camptothecin (screen for TDP1 inhibitors) | chicken DT40 Tdp1-/-;hTDP1 cells + 20 nM CPT, ATP luminescence, 48 h | Potency, µM (doses to about 46.2 µM), hits mostly inhibitors | hit rate 12% among 420,000 | AID 686979; also: nearly all actives have a fitted effect of over 55% in size
#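 Chicken DT40 Tdp1-/- cells stably complemented with human TDP1 were seeded at 400 cells/well in medium containing 20 nM camptothecin, exposed to pin-transferred compounds, and grown at 37 °C for at least 48 hr. Viability was read as ATP luminescence.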
# miR-21 reporter: miR-21 reporter, rising signal; HeLa miR-21 FLuc reporter, luciferase, 48 h; Potency, µM (doses to about 38.3 µM); 340,000 tested, under 10 active; AID 2288; active = well fitted rising curve with a large enough effect; inconclusive = small, poorly fitted or top-dose-only effect; inactive = no such curve, though single readings can be large or run the other way;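 further: miR-21 action dims this reporter so a rising signal means less miR-21 action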
#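 Compounds were titrated across several concentrations (up to approximately 40 uM) and incubated 48 hours with HeLa miR-21-FLuc reporter cells (miR-21 target sequence downstream of FLuc, endogenous miR-21). Readout was firefly luciferase luminescence after lytic detection reagent.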
# TDP1 block: inhibitors of human tyrosyl-DNA phosphodiesterase TDP1; Q9NUW8; recombinant TDP1, AlphaScreen DNA substrate cleavage; Potency, µM (top dose mostly 130 µM), most hits filed as inhibitors; hit rate 0.28% among 350,000; AID 485290; also: nearly all actives have a fitted effect of over 40% in size
#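 Enzyme-compound mixtures sat 15 min at room temperature, followed by a 5 min reaction with 15 nM final substrate and 10 min with AlphaScreen beads. Recombinant human Tdp1 was used at 1 nM final.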
# Hits are given with their value; i = inactive; ? = inconclusive; nt = no result. This is a sample that favours compounds with a hit; in the whole collection about 16% have one here. Unless noted, calls follow the shape of the dose curve; as a rule, active = well fitted curve in the direction sought with a large enough effect; inconclusive = small, poorly fitted or top-dose-only effect, or another doubt; inactive = no such curve, though single readings can be large; an effect the other way counts as inactive or inconclusive.
SMILES,TDP1 cell noCPT,uPA surface inh,DT40 TDP1 CPT,miR-21 reporter,TDP1 block
COc1cccc(COc2cc3ccccc3nc2C)c1,9.2µM,i,10µM,i,i
Cc1nc2ccccc2cc1OCc1ccccc1,16µM,i,12µM,i,i
CCOC(=O)c1cnc(SC)nc1Oc1cccc(NC(=O)c2ccc(C)cc2)c1,15µM,i,?,i,i
CCOc1c(Br)cc(CNC2CCCCCCC2)cc1OC,15µM,?,21µM,i,i
CCOC(=O)C1=C(CSc2nc3c(cc2C#N)CN(C)CC3)OC(N)=C(C#N)C1c1ccc(Cl)cc1 (centres undefined),?,i,?,i,i
CCOC(=O)C1=C(CSc2nc(-c3ccccc3)ccc2C#N)OC(N)=C(C#N)C1c1ccc(OC)cc1 (centres undefined),9.2µM,i,8.2µM,i,i
CCOC(=O)C1=C(CSc2nc(C)cc(C)c2C#N)OC(N)=C(C#N)C1c1ccccc1 (centres undefined),23µM,i,?,i,i
CCOC(=O)C1=C(CSc2nc(CC)c(C)cc2C#N)OC(N)=C(C#N)C1c1ccccc1 (centres undefined),23µM,i,3.3µM,i,i
CCOC(=O)C1=C(CSc2nc(C)cc(C)c2C#N)OC(N)=C(C#N)C1c1cccs1 (centres undefined),i,i,?,i,i
COc1ccc(Oc2ncc3nc(-c4ccc(OC)cc4)c(=O)n(C4CC4)c3n2)cc1,i,nt,i,nt,nt
Cc1ccc(-c2cc(-c3nnc(SCC(=O)NCC(C)C)n3N)c3ccccc3n2)cc1,?,i,?,i,i
CCCC[n+]1c(/C=C/c2ccc(N(C)C)cc2)sc2ccccc21,0.1µM,nt,0.025µM,nt,nt
CCCCCCCCCC[n+]1ccc(/C=C/c2ccc(N(C)C)cc2)c2ccccc21,0.32µM,nt,0.35µM,nt,nt
CN(C)c1ccc(/C=C/C#N)cc1,i,i,i,i,i
CCCC[n+]1c(C)sc2ccc(C)cc21,?,i,?,i,i
CN(C)c1ccc(/C=C/c2sc3ccccc3[n+]2CCCCI)cc1,0.71µM,nt,0.56µM,nt,nt
CN(CCCS(=O)(=O)[O-])c1ccc(/C=C/c2ccc3ccccc3[n+]2C)cc1,?,i,i,i,nt
CN(Cc1ccccc1)c1ccc(/C=C/c2sc3ccccc3[n+]2C)cc1,0.11µM,nt,0.089µM,nt,nt
COc1ccc(CN(C2CCCC2)S(=O)(=O)c2ccc(-n3cnnn3)cc2)cc1OC,?,i,i,i,i
COc1cc(S(=O)(=O)N(Cc2ccc(C)cc2)C2CCCCC2)ccc1-n1cnnn1,23µM,i,?,i,i
CCCn1ccc(O)c(Cc2ccc(Cl)cc2)c1=O,i,i,i,i,i
O=C(CCN1CCc2ccccc2C(c2ccccc2)C1)c1ccc2c(c1)OCCO2 (centres undefined),3.3µM,i,3.3µM,i,i
O=C(O)CCSCC(=O)c1ccc2c(c1)OCCO2,i,i,i,i,i
O=C(C[n+]1ccc(/C=C/c2ccccc2)cc1)c1ccc2c(c1)OCCO2,9.2µM,i,?,i,nt
O=C(CCN1Cc2ccccc2C1)c1ccc2c(c1)OCCO2,5.2µM,i,3.7µM,i,i
SMILES,TDP1 cell noCPT,uPA surface inh,DT40 TDP1 CPT,miR-21 reporter,TDP1 block
O=C(CS(=O)(=O)c1ccccc1)c1ccc2c(c1)OCCO2,18µM,i,15µM,i,i
CS(=O)(=O)c1cccc(C(=O)OCC(=O)c2ccc3c(c2)OCCO3)c1,?,i,i,nt,i
O=C(O)CCC(=O)c1ccc2c(c1)OCCO2,i,i,i,i,i
CC(C)CN(CC(C)C)S(=O)(=O)N1CCC(C(=O)NCc2cccnc2)CC1,?,i,i,i,i
O=C(Nc1ccccc1N1CCOCC1)c1ccc(N2CCCC2=O)cc1,i,i,i,nt,i
Cc1ccc(S(=O)(=O)NNC(=O)C2Cc3c(ccc4ccccc34)O2)cc1 (centres undefined),23µM,i,?,i,i
C=CC[C@H](N)C(=O)O,nt,nt,nt,nt,i
Cc1cc(C)c2c(CC(=O)Nc3ccc(Cl)cn3)coc2c1,?,i,i,i,i
O=C(/C=C/c1ccc2c(c1)OCO2)NCc1ccco1,i,i,i,i,i
CCCCC1CCC(C(=O)N(CCCC)c2c(N)n(CCCC)c(=O)[nH]c2=O)CC1 (centres undefined),21µM,i,12µM,i,i
CCCCC1CCC(C(=O)N(CC(C)C)c2c(N)n(CCCC)c(=O)[nH]c2=O)CC1 (centres undefined),?,i,?,nt,i
O=C(NCCc1ccccc1)C1CCN(c2nc3ccccc3nc2C(F)(F)F)CC1,?,nt,?,i,i
COc1ccc(CCNC(=O)C2CCN(c3nc4ccccc4nc3C(F)(F)F)CC2)cc1OC,18µM,nt,23µM,i,i
CSc1ccc(CNC(=O)C2CCN(c3nc4ccccc4nc3C(F)(F)F)CC2)cc1,?,nt,?,i,i
CCCSCCCNC(=O)C1CCN(c2nc3ccccc3nc2C(F)(F)F)CC1,16µM,nt,21µM,i,i
CCN(CC)S(=O)(=O)c1ccc(C)c(C(=O)Oc2cccc(-c3cnc4ccccc4n3)c2)c1,21µM,i,?,i,i
O=C(Oc1cccc(-c2cnc3ccccc3n2)c1)c1ccco1,i,i,i,i,i
CCN(CC)S(=O)(=O)c1cc(C(=O)Oc2cccc(-c3cnc4ccccc4n3)c2)ccc1OC,21µM,i,?,i,i
CCn1c(C)nc2cc(S(=O)(=O)C(F)(F)F)ccc21,16µM,i,?,i,i
C[C@H](CO)N1C[C@H](C)[C@@H](CN(C)C(=O)Nc2ccc(C(F)(F)F)cc2)Oc2c(NC(=O)Nc3ccccc3)cccc2C1=O,?,i,?,nt,i
C[C@H](CO)N1C[C@H](C)[C@@H](CN(C)C(=O)Nc2ccc(C(F)(F)F)cc2)Oc2c(NC(=O)Nc3ccc4c(c3)OCO4)cccc2C1=O,18µM,i,?,nt,i
C[C@H](CO)N1C[C@H](C)[C@@H](CN(C)C(=O)Nc2ccc3c(c2)OCO3)Oc2c(NC(=O)Nc3ccc(C(F)(F)F)cc3)cccc2C1=O,?,?,13µM,nt,i
CC(=O)c1ccc(S(=O)(=O)N2CCN(C(=O)C3CCCC3)CC2)cc1,i,i,i,i,i
CCc1nc2ccccc2c(NC(=O)CN2CCC(C)CC2)c1C,?,i,i,i,i
CCn1c(SCC(=O)NNC(=O)c2ccccc2)nnc1-c1ccco1,?,i,i,i,i
Cc1ccc(S(=O)(=O)N(CC(=O)NC2CCCCCC2)c2ccccc2F)cc1,i,nt,i,i,i
CCOc1ccccc1N(CC(=O)N1CCC(C)CC1)S(=O)(=O)c1ccc(C)cc1,15µM,i,9.2µM,i,i
CCOc1ccccc1N(CC(=O)N1CCCCCC1)S(=O)(=O)c1ccc(C)cc1,?,i,23µM,i,i
